From patent publication US20220185900A1

Biological target: human RET on cells (MCF7/SRE-Luc; HEK293/hGFRα3/hRET/SRE-Luc; HEK293/hGFRα1/hRET/SRE-Luc) (human) (UniProt P07949)
Assay: cell-based or functional assay

293/hGFRα3/hRET SRE-luc % Blocking: 99%
293/hGFRα3/hRET/SRE-Luc IC50: 8.3 nM
Internalization (% H4H8087P), HEK293/hGFRa1/hRET/SRE-Luc cells, 37 C: 35.4%
MCF7/SRE-Luc % Activation: 0%
MCF7/SRE-Luc Avg % Blocking: 82%
MCF7/SRE-luc Avg. IC50: > 100 nM
Substance: H4H8048P (antibody)
